{"source": "patent US10406264B2", "about": "“Peptide having titanium-binding ability” (NANO INTELLIGENT BIOMEDICAL ENGINEERING CORPORATION. CO. LTD, priority 2016, dated 2019)", "type_in_all_cases": "cell-based", "key": {"[1]": {"system": "periodontal ligament stem cells (PDLSCs)", "assay": "mineralization of periodontal ligament stem cells (Alizarin red S) on coated titanium discs", "conditions": "day 18; significant p<0.05, not significant p>0.05", "experimental": "In order to examine the osteogenic differentiation-inducting activity and loading of a titanium binding peptide-linked osteogenic peptide (SEQ ID NO: 3 or SEQ ID NO: 4) when being administered once, mineralization of periodontal ligament stem cells (PDLSCs) by the peptide was evaluated. Specifically, one titanium disc was placed in each well of a 24-well low-attachment polystyrene plate and blocked with a blocking solution (0.1 M NaHCO3 (pH 8.6), 5 mg/ml BSA, 0.02% NaN3 (optional), filter sterilize) for at least 1 hour. Next, the blocking solution was discarded, and each well was washed three times or more with a washing solution (DPBS: Dulbeccos phosphate buffered saline), after which 50 μl of the solution shown in Table 2 of Example 5 was dispensed and coated on the surface of each titanium disc. Each well was incubated at room temperature for 15 hours, and then washed three times or more with a washing solution (DPBS). […]\nFor 18 days after the first coating of the disc surface, the cells were cultured while replacing the medium without adding a solution containing the physiologically active substance. […] Then, the cells were incubated with 10% cetylpyridinium chloride (Sigma-Aldrich, USA) at room temperature for 2 hours, and the absorbance at 570 nm was measured."}, "PDLSC cells": {"system": "PDLSC cells", "assay": "cell viability test (trypan blue count) on peptide-coated titanium discs", "conditions": "disc coated per Table 2 (peptides 100 μM, BMP-2 100 ng/ml)", "experimental": "In order to evaluate whether or not a titanium binding peptide-linked osteogenic peptide (SEQ ID NO: 3 or SEQ ID NO: 4) and a titanium-binding peptide (SEQ ID NO: 1) are cytotoxic when these peptides are administered alone, a cell viability test was performed.\nSpecifically, one titanium disc was placed in each well of a 24-well low-attachment polystyrene plate and blocked with a blocking solution (0.1 M NaHCO3 (pH 8.6), 5 mg/ml BSA, 0.02% NaN3 (optional), filter sterilize) for at least 1 hour. Next, the blocking solution was discarded, and each well was washed three times or more with a washing solution (DPBS: Dulbeccos phosphate buffered saline), after which 50 μl of the solution shown in Table 2 below was dispensed and coated on the surface of each titanium disc. Each well was incubated at room temperature for 15 hours, and then washed three times or more with a washing solution (DPBS). Next, 3×10^4 PDLSC cells suspended in 50 μl of a medium (Minimum Essential Medium Eagle Alpha Modifications, Hyclone, USA) containing 10% FBS (Fetal Bovine Serum) and 1% antibiotic-antimycotic solution (Thermo Fisher Scientific, USA) were dispensed per titanium disc. […] Next, the cells were detached, stained with trypan blue, and counted with a hematocytometer to determine the number of viable cells."}, "[2]": {"system": "periodontal ligament stem cells (PDLSCs)", "assay": "ALP activity in periodontal ligament stem cells on coated titanium discs", "experimental": "In order to examine the osteogenic differentiation-inducting activity and loading of a titanium binding peptide-linked osteogenic peptide (SEQ ID NO: 3 or SEQ ID NO: 4) and a titanium-binding peptide (SEQ ID NO: 1) when these peptides are administered once, evaluation of ALP activity in periodontal ligament stem cells (PDLSCs) was performed. Specifically, one titanium disc was placed in each well of a 24-well low-attachment polystyrene plate and blocked with a blocking solution (0.1 M NaHCO3 (pH 8.6), 5 mg/ml BSA, 0.02% NaN3 (optional), filter sterilize) for at least 1 hour. Next, the blocking was discarded, and each well was washed three times or more with a washing solution solution (DPBS: Dulbeccos phosphate buffered saline), after which 50 μl of the solution shown in Table 2 of Example 5 was dispensed and coated on the surface of each titanium disc. Each well was incubated at room temperature for 15 hours, and then washed three times or more with a washing solution (DPBS). […]\nFor 18 days after the first coating of the disc surface, the cells were cultured while replacing the medium without adding a solution containing the physiologically active substance. On day 0, 6, 10, 13 and 18 of culture, cultured media were recovered, and ALP activity was measured using an alkaline phosphatase assay kit (cat#.ab83369, abcam, USA)."}}, "data": [{"substance": "BMP-2: bone morphogenetic protein, control, 100 ng/ml", "values": [{"measurement": "mineralization (absorbance at 570 nm), difference versus NT (negative control) group", "setting": "[1]", "value": "no statistically significant difference"}, {"measurement": "Total cell number (viable cells), Average", "setting": "PDLSC cells; average of #1 and #2, 3 days culture", "value": "6.0 × 10^4"}, {"measurement": "Total cell number (viable cells), #1", "setting": "PDLSC cells; replicate #1, 3 days culture", "value": "4.5 × 10^4"}, {"measurement": "Total cell number (viable cells), #2", "setting": "PDLSC cells; replicate #2, 3 days culture", "value": "7.5 × 10^4"}, {"measurement": "ALP activity on day 10 of culture, difference versus NT (negative control) group", "setting": "[2]; day 10, FIG. 7, significant p<0.05, not significant p>0.05", "value": "no statistically significant difference"}, {"measurement": "change in ALP activity during 18 days of culture", "setting": "[2]; single coating, days 0, 6, 10, 13, 18, FIG. 6", "value": "significant change in ALP activity was not observed"}]}]}
